Chains of the proteins cited; added tags and fusions are not shown. Residues count along the entry.
UniProt P09483, 31-630 limits assumed: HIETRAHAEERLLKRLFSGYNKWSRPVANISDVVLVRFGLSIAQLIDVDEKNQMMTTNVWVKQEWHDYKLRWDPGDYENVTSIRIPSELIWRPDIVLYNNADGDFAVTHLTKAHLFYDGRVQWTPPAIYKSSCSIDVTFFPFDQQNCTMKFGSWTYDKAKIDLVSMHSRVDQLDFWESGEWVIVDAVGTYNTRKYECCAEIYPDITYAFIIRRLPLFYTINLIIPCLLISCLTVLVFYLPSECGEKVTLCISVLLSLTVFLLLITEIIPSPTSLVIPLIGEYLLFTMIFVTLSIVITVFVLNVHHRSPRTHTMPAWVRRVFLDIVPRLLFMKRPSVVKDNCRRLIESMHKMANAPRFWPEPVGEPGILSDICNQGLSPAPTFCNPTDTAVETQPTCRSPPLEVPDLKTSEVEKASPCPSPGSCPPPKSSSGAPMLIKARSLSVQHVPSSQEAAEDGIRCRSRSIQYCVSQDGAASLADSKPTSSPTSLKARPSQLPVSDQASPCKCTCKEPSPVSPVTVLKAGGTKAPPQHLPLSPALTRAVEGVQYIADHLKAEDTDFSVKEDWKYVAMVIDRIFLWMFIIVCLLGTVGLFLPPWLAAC
UniProt P12390, 25-500 limits assumed: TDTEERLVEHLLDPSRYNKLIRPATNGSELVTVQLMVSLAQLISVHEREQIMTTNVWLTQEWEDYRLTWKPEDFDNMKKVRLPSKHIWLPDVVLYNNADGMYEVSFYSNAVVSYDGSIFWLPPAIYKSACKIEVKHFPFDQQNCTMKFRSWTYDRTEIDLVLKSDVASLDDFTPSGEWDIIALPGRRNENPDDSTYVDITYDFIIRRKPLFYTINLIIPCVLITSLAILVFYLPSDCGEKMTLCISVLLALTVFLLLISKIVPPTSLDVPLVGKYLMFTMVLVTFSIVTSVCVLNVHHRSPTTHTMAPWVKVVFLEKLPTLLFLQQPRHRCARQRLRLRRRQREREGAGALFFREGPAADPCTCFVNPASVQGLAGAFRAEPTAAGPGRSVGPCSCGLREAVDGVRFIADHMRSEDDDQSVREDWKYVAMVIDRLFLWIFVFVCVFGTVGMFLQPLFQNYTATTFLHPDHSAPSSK

According to patent US5714615A (priority 1994, dated 1998):

Columns and labels:
GD [1] = assay: Intramuscular pretreatment against GD in mice
GD [2] = assay: Oral pretreatment against GD in mice; conditions: for % survival: oral; for oral pretreatment activity against GD (in words): mouse, in vivo
nicotinic receptor = nicotinic receptor (Rattus norvegicus, UniProt P09483+P12390); assay: Cortical nicotinic receptor binding, [3H]cytisine displacement; conditions: high affinity binding
DMTS performance = assay: Delayed matching-to-sample (DMTS) task in monkeys
GA = assay: Reactivator activity against GA in mice; assay type: in vivo, Male ICR mice; conditions: 0.009 mmol/kg i.m.

C[n+]1cccc(O)c1C=NOCc1ccccc1 [Compound 1b, O-Benzyl-N-(3-hydroxy-1-methyl-2-pyridinemethylene) hydroxylamine chloride]
% survival (GD [1]; 15 min, 22 mmol/kg i.m.): 0%
% survival (GD [1]; 60 min, 22 mmol/kg i.m.): 10%
% survival (GD [2]; 30 min, 60 mmol/kg): 30%
% survival (GD [2]; 120 min, 60 mmol/kg): 70%

C[n+]1cccc(O)c1C=NO [Compound 1f]
% survival (GD [1]; 15 min, 310 mmol/kg i.m.): 30%
% survival (GD [1]; 60 min, 77 mmol/kg i.m.): 20%

CN(C)C(=O)Oc1ccc(C=NO)[n+](C)c1
% survival (GD [1]; 15 min, 9.0 mmol/kg i.m.): 90%
% survival (GD [1]; 15 min, 37 mmol/kg i.m.): 90%
% survival (GD [1]; 15 min, 150 mmol/kg i.m.): 50%
% survival (GD [1]; 60 min, 9.0 mmol/kg i.m.): 90%
% survival (GD [1]; 60 min, 37 mmol/kg i.m.): 70%
% survival (GD [1]; 60 min, 150 mmol/kg i.m.): 0%

CN(C)C(=O)Oc1ccc[n+](C)c1 [Pyridostigmine, pyridostigmine]
mice surviving, positive control (GD [1]; pretreatment, 2×LD50 GD): 80-100%
oral pretreatment activity against GD (in words) (GD [2]): no survival

CN(C)C(=O)Oc1ccc[n+](C)c1C=NNC(=O)Nc1ccccc1
potency less than carbachol (nicotinic receptor): about 30 fold
potency less than nicotine (nicotinic receptor): about 600 fold
% survival (GD [1]; 15 min, 0.65 mmol/kg i.m.): 90%
% survival (GD [1]; 15 min, 2.7 mmol/kg i.m.): 90%
% survival (GD [1]; 15 min, 11 mmol/kg i.m.): 40%
% survival (GD [2]; 30 min, 10 mmol/kg): 70%
% survival (GD [2]; 120 min, 10 mmol/kg): 100%
average best dose (DMTS performance; 11 monkeys, i.m.): 0.054 ± 0.008 mg/kg
choice latencies in DMTS (DMTS performance; 30, 60 and 100 μg/kg i.m.): no significant effect
improvement above baseline at long delay intervals (DMTS performance; best dose 30-100 μg/kg i.m., 11 monkeys): 18 percentage points
improvement as percent of baseline DMTS performance (DMTS performance; best dose, i.m.): 32.2%
increase in DMTS performance (DMTS performance; over 2-3 doses): up to 14 % points

C[n+]1cc(O)ccc1C=NO [Compound 1g]
% survival (GD [1]; 15 min, 16 mmol/kg i.m.): 10%
% survival (GD [1]; 60 min, 260 mmol/kg i.m.): 20%

C[n+]1ccccc1C=NNC(=O)C[n+]1ccccc1 [Compound 5b, 2-(1-Methyl-2-pyridinemethylene)-1-[2-(1-pyridinium)acetyl] hydrazine dichloride]
% survival (GD [1]; 15 min, 24 mmol/kg i.m.): 100%
% survival (GD [1]; 15 min, 96 mmol/kg i.m.): 100%
% survival (GD [1]; 60 min, 24 mmol/kg i.m.): 30%
% survival (GD [1]; 60 min, 96 mmol/kg i.m.): 100%

COc1ccc(CON=Cc2c(OC(=O)N(C)C)ccc[n+]2C)cc1
% survival (GD [1]; 15/60 min, 0.005-0.11 mmol/kg i.m.): 50-70%
% survival (GD [2]; 30 min, 2.2 mmol/kg): 100%
% survival (GD [2]; 120 min, 2.2 mmol/kg): 100%

COc1ccc(CON=Cc2c(O)ccc[n+]2C)cc1 [Compound 1e, O-(p-Methoxybenzyl)-N-(3-hydroxy-1-methyl-2-pyridinemethylene) hydroxylamine chloride]
% survival (GD [1]; 15 min, 320 mmol/kg i.m.): 40%
% survival (GD [1]; 60 min, 81 mmol/kg i.m.): 10%

CN(C)C(=O)Oc1ccc[n+](C)c1C=NOCc1ccccc1
% survival (GD [1]; 15/60 min, 0.009-0.14 mmol/kg i.m.): 80-90%
% survival (GA): 30%
% survival (GD [2]; 30 min, […]): 90%
% survival (GD [2]; 120 min, […]): 80%

C[n+]1cccc(O)c1C=NNC(=O)C[n+]1ccccc1 [Compound 5a, 2-(3-Hydroxy-1-methyl-2-pyridinemethylene)-1-[2-(1-pyridinium)acetyl] hydrazine dichloride]
% survival (GD [1]; 15 min, 18-290 mmol/kg i.m.): 70-100%
% survival (GD [1]; 60 min, 18-290 mmol/kg i.m.): 20-70%
oral pretreatment activity against GD (in words) (GD [2]): not good as an oral pretreatment agent
% survival (GD [2]; 30 min, 730 mmol/kg): 40%
% survival (GD [2]; 120 min, 730 mmol/kg): 50%

C[n+]1cccc(O)c1C=NNC(=O)Nc1ccccc1.[Cl-] [Compound 3b, 3-Hydroxy-1-methyl-2-[[(N-phenylaminocarbonyl)hydrazono]methyl] pyridinium chloride]
% survival (GD [1]; 15 min, 1.3 mmol/kg i.m.): 0%
% survival (GD [1]; 60 min, 5.2 mmol/kg i.m.): 20%

CN(C)C(=O)Oc1ccc[n+](C)c1C=NOC(c1ccccc1)c1ccccc1
% survival (GD [1]; 15 min, 0.30 mmol/kg i.m.): 90%
% survival (GD [1]; 15 min, 5.4 mmol/kg i.m.): 30%
% survival (GD [2]; 30 min, 120 mmol/kg): 90%
% survival (GD [2]; 120 min, 120 mmol/kg): 100%

C[n+]1cccc(O)c1C=NOCc1ccc(Cl)cc1 [Compound 1d, O-(p-Chlorobenzyl)-N-(3-hydroxy-1-methyl-2-pyridinemethylene) hydroxylamine chloride]
% survival (GD [1]; 15 min, 9.6 mmol/kg i.m.): 10%

CON=Cc1c(O)ccc[n+]1C [Compound 1c, O-Methyl-N-(3-hydroxy-1-methyl-2-pyridinemethylene) hydroxylamine chloride]
% survival (GD [2]; 120 min, 200 mmol/kg): 50%

CN(C)C(=O)Oc1ccc[n+](C)c1C=NNC(N)=O
% survival (GD [1]; 15 min, 0.2 mmol/kg i.m.): 50%
% survival (GD [1]; 15 min, 0.6 mmol/kg i.m.): 80%
% survival (GD [1]; 15 min, 2.3 mmol/kg i.m.): 80%
% survival (GD [1]; 60 min, 0.2 mmol/kg i.m.): 90%
% survival (GD [1]; 60 min, 0.6 mmol/kg i.m.): 100%
% survival (GD [1]; 60 min, 2.3 mmol/kg i.m.): 80%
